One may read the Ki as a measure of affinity in units of concentration, obtained from inhibition or displacement.

Protein sequences, listed by entry. Tags and fused reporters are not part of them.
UniProt P21452, whole entry: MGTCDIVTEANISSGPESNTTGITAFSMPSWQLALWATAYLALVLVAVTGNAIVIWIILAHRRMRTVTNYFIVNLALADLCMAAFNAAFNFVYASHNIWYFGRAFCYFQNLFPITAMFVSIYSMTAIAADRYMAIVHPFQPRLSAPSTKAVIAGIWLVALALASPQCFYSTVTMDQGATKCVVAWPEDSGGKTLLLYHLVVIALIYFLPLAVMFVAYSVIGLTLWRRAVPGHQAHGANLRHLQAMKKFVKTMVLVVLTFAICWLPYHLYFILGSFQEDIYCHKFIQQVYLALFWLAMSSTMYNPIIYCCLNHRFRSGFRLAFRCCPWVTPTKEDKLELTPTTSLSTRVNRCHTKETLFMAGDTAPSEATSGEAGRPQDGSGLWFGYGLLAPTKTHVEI

Among the data in patent US10799605B2 (3B PHARMACEUTICALS GMBH, priority 2014, dated 2020) are Ki values, retold here.

The target in the assay is NK2 (h) (Homo sapiens (Human), UniProt P21452). The assay can be described thus: ExpresSProfile: neurokinin receptor 2, agonist radioligand. In kind it is binding. Conditions: Reference Compound; read-out: Ki Ref.

In the case of `CCCC[C@H](NC(=O)[C@H](CC(C)C)NC(=O)CNC(=O)[C@@H](NC(=O)[C@H](Cc1ccccc1)NC(=O)[C@H](CO)NC(=O)[C@@H](N)CC(=O)O)C(C)C)C(N)=O`, the Ki was determined as 2.5 nM.
